Experimental findings from patent publication US10793556B2, “8-amino-2-oxo-1,3-diaza-spiro-[4.5]-decane derivatives” (dated 2020) are described below.

Sequences of proteins named here, by UniProt entry; tags and fusion partners are left off. A change or cut given only in a name is not applied to a line headed by its entry.
UniProt P35372, whole entry, looked up: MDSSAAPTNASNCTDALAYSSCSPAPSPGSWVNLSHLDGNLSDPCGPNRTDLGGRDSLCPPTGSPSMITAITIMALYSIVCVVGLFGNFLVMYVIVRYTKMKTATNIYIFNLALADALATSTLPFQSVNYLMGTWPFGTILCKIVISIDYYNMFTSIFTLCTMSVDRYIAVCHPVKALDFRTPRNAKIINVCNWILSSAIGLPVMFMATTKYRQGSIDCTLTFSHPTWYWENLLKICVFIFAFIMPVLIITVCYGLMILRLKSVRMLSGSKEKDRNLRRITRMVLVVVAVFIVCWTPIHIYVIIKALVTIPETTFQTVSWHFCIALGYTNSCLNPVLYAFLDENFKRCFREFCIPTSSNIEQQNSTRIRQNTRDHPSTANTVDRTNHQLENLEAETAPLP
UniProt P41146: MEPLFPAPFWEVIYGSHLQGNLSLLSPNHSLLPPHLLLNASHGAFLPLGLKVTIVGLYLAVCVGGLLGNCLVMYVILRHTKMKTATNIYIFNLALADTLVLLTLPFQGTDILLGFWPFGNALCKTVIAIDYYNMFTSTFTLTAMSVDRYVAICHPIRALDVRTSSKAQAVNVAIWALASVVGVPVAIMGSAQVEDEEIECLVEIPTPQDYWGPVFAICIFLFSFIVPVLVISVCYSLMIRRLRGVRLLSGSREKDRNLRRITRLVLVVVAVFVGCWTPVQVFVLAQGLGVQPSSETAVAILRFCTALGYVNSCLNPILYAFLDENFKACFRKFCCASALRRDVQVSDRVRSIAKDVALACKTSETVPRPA

For assay [1], the target named is human mu-opioid peptide (hMOP) receptor (Homo sapiens (Human), UniProt P35372). Nature of the assay: hMOP receptor binding assay (SPA, [3H]naloxone). The note with it: for Ki: read-out: hMOP Ki.
Assay [2] concerns the target human nociceptin/orphanin FQ peptide (hNOP) receptor (Homo sapiens (Human), UniProt P41146). As to the kind of experiment: hNOP receptor binding assay (SPA, [leucyl-3H]nociceptin). The note with it: read-out: hNOP Ki.

Usually Ki stands for a measure of affinity in units of concentration, obtained from inhibition or displacement. `Cc1ccc(S(=O)(=O)N2C(=O)NC[C@]23CC[C@](c2ccccc2)(N(C)C)CC3)cc1`: the Ki in assay [1] is 185 nM; in assay [2] it was 815 nM.
`CN(C)[C@]1(c2ccccc2)CC[C@]2(CC1)CN(CCC1(O)COC1)C(=O)N2CC1CCC1`: the Ki in assay [1] amounted to 63 nM; in assay [2] it was 1 nM.
For `CN(C)[C@]1(c2ccccc2)CC[C@]2(CC1)CN(C1CCN(c3ccnnc3)CC1)C(=O)N2CC1CC1` the same measures were 330 nM and 36 nM.
Turning to `CC(=O)N1C[C@]2(CC[C@](c3ccccc3)(N(C)C)CC2)NC1=O`, the inhibition constant Ki in assay [1] worked out at 1430 nM; in assay [2], 119 nM.
For `CN(C)[C@]1(c2ccccc2)CC[C@]2(CC1)CN(C1CCN(c3ccccc3)CC1)C(=O)N2`, the values for the Ki in assay [1] and in assay [2] were 4150 nM and 145 nM, respectively.
Consider `CN[C@]1(c2ccccc2)CC[C@]2(CC1)CN(CC(C)(C)C#N)C(=O)N2`, for which the “hMOP % inhibition at 1 μM” value in assay [1] was determined as 4%@1 μM. In addition, in assay [2], the Ki is 690 nM.
For the compound `CN(C)[C@]1(c2ccccc2)CC[C@]2(CC1)CN(CCS(C)(=O)=O)C(=O)N2CC1CC1`, the figures for the Ki in assay [1] and in assay [2] were 245 nM and 11 nM, respectively.
For the compound `CC(=O)N1C(=O)NC[C@]12CC[C@](c1ccccc1)(N(C)C)CC2`, the “hMOP % inhibition at 1 μM” value in assay [1] is 15%@1 μM.
For `CN(C)[C@]1(c2ccccc2)CC[C@]2(CC1)CN(C1CCNCC1)C(=O)N2CC1CC1`, the results for the inhibition constant Ki in assay [1] and in assay [2] were 1300 nM and 26 nM, respectively.
For `CN(C)[C@]1(c2ccccc2)CC[C@]2(CC1)CN(CC1CCOCC1)C(=O)N2CC1(O)CCC1` the same measures were 206 nM and 26 nM.
For `CN(C)[C@]1(c2ccccc2)CC[C@]2(CC1)CN(CC(C)(C)S(C)(=O)=O)C(=O)N2CC1CCC1`, the Ki was found to be 76 nM in assay [1] and 0.4 nM in assay [2].
The matching figures for `CN(C)[C@]1(c2ccccc2)CC[C@]2(CC1)CN(CC1(N)CC1)C(=O)N2CC1CC1`: 495 nM and 5 nM.
For `CN(C)[C@]1(c2ccccc2)CC[C@]2(CC1)CN(CC(C)(C)N1CCCC1=O)C(=O)N2CC1CC1` the same measures were 255 nM and 10 nM.
The matching figures for `CN(C)[C@]1(c2ccccc2)CC[C@]2(CC1)CN(CC(C)(C)O)C(=O)N2CC1CC1`: 1870 nM and 54 nM.
Consider `CN(C)[C@]1(c2ccccc2)CC[C@]2(CC1)CN(CCS(C)(=O)=O)C(=O)N2`, for which the Ki in assay [1] turned out to be 8530 nM; in assay [2], 345 nM.
For `CN(C)[C@]1(c2ccccc2)CC[C@]2(CC1)CN(C1CCN(c3ccccc3)CC1)C(=O)N2CC1CC1` the same measures were 1050 nM and 3 nM.
`CN(C)[C@]1(c2ccccc2)CC[C@]2(CC1)CN(CC(C)(C)N1C(=O)CCC1=O)C(=O)N2CC1CC1`: the Ki in assay [2] stood at 118 nM.
Turning to `CN(C)[C@]1(c2ccccc2)CC[C@@]2(CC1)CN(CCS(C)(=O)=O)C(=O)N2CC1(O)CCC1`, the values for the Ki in assay [1] and in assay [2] were 96 nM and 395 nM, respectively.
For `CN(C)[C@]1(c2ccccc2)CC[C@]2(CC1)CN(CC1(O)CCOCC1)C(=O)N2CC1(O)CCC1` the same measures were 1060 nM and 19 nM.
